{"sequences": {"note": "The chains behind the UniProt entries cited, without tags or fusion partners.", "UniProt Q9HYN5, entry or part of it": "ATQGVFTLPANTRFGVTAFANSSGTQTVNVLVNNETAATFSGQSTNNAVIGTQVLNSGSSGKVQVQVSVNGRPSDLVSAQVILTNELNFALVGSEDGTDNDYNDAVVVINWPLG"}, "source": "paper PMC6018602", "about": "“The virulence factor LecB varies in clinical isolates: consequences for ligand binding and drug discovery” (Chemical Science, 2016)", "origin": "cited, not measured here", "biological_target": "LecBPAO1 (Pseudomonas aeruginosa, UniProt Q9HYN5)", "conditions": "ITC; cited from earlier work", "data": [{"smiles": "CO[C@H]1O[C@H](CO)[C@@H](O)[C@H](O)[C@@H]1O", "note": "[Compound 5, methyl α-D-mannoside]", "values": [{"measurement": "ΔG (LecBPAO1)", "value": -23.7, "unit": "kJ/mol"}]}]}
